Assay results from patent US20140323581A1, “TRANSCRIPTOME WIRING ANALYSIS IN PARKINSON'S DISEASE AND USES THEREOF” (THE TRUSTEES OF COLUMBIA UNIVERSITY IN THE CITY OF NEW YORK, priority 2011, published 2014).
Entries after “also recorded” stand apart in the source; their conditions may differ.

Columns and labels:
[1] = tested on: aSynL/total ratio; test: aSynL/total ratio in brain of MPTP-treated macaques (reanalysis of GEO GSE4550); format: in vivo, macaque; settings: 0.2 mg/kg i.p. daily for 6 or 12 days vs saline
[2] = tested on: aSynL/total ratio; test: aSynL/total ratio in brain regions of MPTP-treated mice (reanalysis of GEO GSE7707); format: in vivo, mouse; settings: 30 mg/kg i.p. daily for 5 days vs saline

Compound	aSynL/total ratio (Affymetrix probesets 204466_s_at and 211546_x_at) [1]	aSynL/total ratio (Affymetrix probesets 1418493_a_at and 1436853_a_t) [2]
CN1CC=C(c2ccccc2)CC1.Cl [MPTP hydrochloride]	increased	–
CN1CC=C(c2ccccc2)CC1 [MPTP, 1-methyl-4-phenyl-1,2,3,6-tetrahydropyridine]	Mitochondrial toxin increases aSynL: total ratio	increase; also recorded: Mitochondrial toxin increases aSynL: total ratio
